The text below walks through data of patent US20010053351A1, “Inhibition of GSK-3 beta” (priority 1999, published 2001).

The subject of one assay is TRAF2−/− MEFs. Kind of assay: TNF-induced cell death in TRAF2 homozygous mutant MEFs (reference). The class given is cell-based, mouse. Particulars: 10 ng/ml TNF-α and 0.25 μg/ml cycloheximide. Here is the method:
(§1) We next examined the sensitivity of the lines to TNF-induced cell death. […] As a reference, TNF receptor-associated factor 2 (TRAF2) homozygous mutant MEFs were used in the same assay. TRAF2^−/− cell survival in our hands was consistent with previous reports (˜20% at 10 ng/ml TNF-α and 0.25 μg/ml cycloheximide)(Yeh et al. (1997) Immunity 7:715-725)

For assay [1], the system named is wild-type and GSK-3β-heterozygous cells. In words: Cell death / viability (trypan blue) of wild-type and GSK-3β heterozygous embryonic fibroblast cell lines. The assay is classed as cell-based, mouse. The settings on record: TNF-α 4, 10 or 50 ng/ml and cycloheximide 0.25 μg/ml, 24 hr.
From the text: To probe the mechanism by which GSK-3β impacted TNF cytotoxicity, immortalized mouse embryonic fibroblast (MEF) cell lines from two wild-type ([…]), two GSK-3β heterozygous (+/−1 and +/−2) and two GSK-3β homozygous mutant (−/−1 and −/−2) embryos were derived from embryos. Immunoblotting of cell lysates from these cell lines confirmed the loss of GSK-3β expression in the two GSK-3β^−/− cell lines (FIG. 1C), whereas expression of proteins important for TNF signaling, such as TNF-R1 and IKKβ were equivalent.
as §1
Figure (A) Twenty-four hours after the indicated TNF-α (4, 10 or 50 ng/ml) plus cycloheximide (0.25 μg/ml) treatment, viable cells were determined by negative staining with trypan blue. Viability is expressed normalized to untreated controls. Independently derived GSK-3β^+/+ EF cell clones are indicated by +/+1 and +/+2; GSK-3β^+/− by +/−1 and +/−2; and GSK-3β^−/− by −/−1, and −/−2. […] Cells were uniformly treated with cycloheximide (CHX, 0.25 μg/ml). […] (C) Sensitivity of GSK-3β^−/− EF cells to various apoptotic stimuli. […]

“TNF-α: tumor necrosis factor-α, apoptosis inducing ligand of TNFR1”: the cell survival with TRAF2−/− MEFs is roughly 20%. In addition, in assay [1], the “cell viability after TNF-α exposure” value is “relatively unaffected”.
